Measured values: patent US20080299132A1, “Synergistic compositions for treating HIV-1” (Roche Palo Alto LLC, priority 2006, published 2008)

Sequences of proteins named here, by UniProt entry; tags and fusion partners are left off.
UniProt P51681, whole entry: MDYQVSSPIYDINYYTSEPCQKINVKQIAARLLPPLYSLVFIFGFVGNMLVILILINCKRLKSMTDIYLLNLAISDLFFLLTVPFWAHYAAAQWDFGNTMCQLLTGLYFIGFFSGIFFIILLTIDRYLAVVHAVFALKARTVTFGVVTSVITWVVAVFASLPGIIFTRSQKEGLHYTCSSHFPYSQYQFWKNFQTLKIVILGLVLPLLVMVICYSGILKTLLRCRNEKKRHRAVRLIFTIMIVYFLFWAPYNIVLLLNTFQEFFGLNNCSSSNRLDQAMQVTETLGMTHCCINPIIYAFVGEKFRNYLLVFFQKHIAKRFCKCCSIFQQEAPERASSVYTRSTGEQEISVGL

Assays:
CCR5 [1] = biological target: T1, CCR5 (Homo sapiens, UniProt P51681); assay: CCR5-mediated cell-cell fusion (CCF) assay, single agents; assay type: cell-based; design: host or cells: CEM-NKr-CCR5-Luc
Protocol: CCF assay was performed as described before (C. Ji, J. Zhang, N. Cammack and S. Sankuratri, J. Biomol. Screen. 2006 11(6):652-663). […] At the end of co-culture, 15 μL of Steady-Glo luciferase substrate was added into each well, and the cultures were sealed and gently shaken for 45 min. The luciferase activity were measured for 10 sec per well as luminescence by using 16-channel TopCount NXT (PerkinElmer, Shelton, Conn.) with 10 min dark adaptation and the readout is count per second (CPS). […] Five μL each of the two diluted compound or mAb to be tested for drug-drug interactions were added to the Hela-R5 cells right before the addition of target cells.

CCR5 [2] = biological target: T1, CCR5; assay: Drug interaction (synergy) analysis of two-drug combinations in the CCF assay (Greco and Prichard models); assay type: cell-based; design: host or cells: CEM-NKr-CCR5-Luc
From the text: For the in vitro cell-cell fusion studies, the possibility of either enhanced (synergy) or reduced (antagonism) efficacy of CCR5 antibodies in combination with CCR5 antagonists was considered. Models and approaches for the assessment of in vitro drug interactions have been described and reviewed (M. C. Berenbaum J. Theor. Biol. 1985 114:413-431, Pharmacol. Rev. 1989 41:93-141; W. R. Greco et al. Pharmacol. Rev. 1995 47:331-385; M. N Pritchard and C. Shipman Jr. Antivir. Res. 1990 14:181-205; J. Suhnel Antivir. Res. 1990 13:23-39.) Synergy and antagonism are defined as departure from the hypothesis that there is no interaction between two drugs. The Lowe additivity (LA) and Bliss independence (BI) theories are the two primary candidates for reference models which follow two different additive drug interaction theories.
Drug interaction models based on the LA theory assume that a drug cannot interact with itself. […] A seven-parameter non-linear model (i) was fit to all experimental data including percent inhibitions calculated from replicates for all concentrations of the two drugs alone and in combination from two 384-well plates. […]
Loewe additivity or no interaction is indicated when the 95% confidence interval of a includes 0. Furthermore, the predicted additivity of the drugs combined was calculated by using all estimated parameters of the Greco model, except a that is fixed at 0. […]

## Cc1nnc(C(C)C)n1[C@H]1C[C@H]2CC[C@@H](C1)N2CC[C@H](NC(=O)C1CCC(F)(F)CC1)c1ccccc1 [MVC]
CCR5 [1]; added alone at 0.27 nM
  percent inhibition of cell-cell fusion: 13%
CCR5 [1]; drug alone
  concentration required to reach 95% inhibition: 22.2 nM
CCR5 [2]; 0.8 nM ROAb14 plus 2.47 nM MVC added together
  concentration required to achieve 95% inhibition in combination: 2.47 nM
CCR5 [2]; ROAb14 plus MVC
  reduction in dose to reach 95% inhibition, combination versus alone: 9.8 fold
